Literature values in patent publication US8383817B2, “Benztropine compounds and uses thereof” (The United States of America, as represented by the …, priority 2005, dated 2013).

Target: T1, NET (Rattus norvegicus, UniProt Q9WTR4)
T1 construct: rows headed: NET Ki; NET Ki
Details: read-out: NET Ki; data from Katz et al. 2001, included for reference; cited from earlier work

## CN1[C@@H]2CC[C@H]1C[C@@H](OC(c1ccc(Cl)cc1)c1ccc(Cl)cc1)C2 [4,4-diCl BZT, 3α-(bis-Cl-phenylmethoxy)tropane, reference compound]
  Ki: 2980 nM
